Source: patent publication US8603984B2
Like-named read-outs stand apart in the source and are kept apart here.

Experiments:
[1] = system: narcotic side-effects of an overdose of the composition; test: Example 7: IM naloxone reversal of narcotic effects (sedation, body temperature, heart rate) of a 5X overdose
[2] = 40 or 160 μg/kg IM hourly
[3] = oxymorphone-treated, 4 day study period

C=CCN1CC[C@]23c4c5ccc(O)c4O[C@H]2C(=O)CC[C@@]3(O)[C@H]1C5
mean proportion of sedated canines ([1]; 16 through 24 hours, group 1 (40 μg/kg IM naloxone)): 0.698
mean proportion of sedated canines ([1]; 16 through 24 hours, group 2 (160 μg/kg IM naloxone)): 0.438
body temperature ([1]; 26 and 28 hours, after naloxone): 35.9±0.0976 °C
mean proportion of sedated canines ([1]; after cessation of naloxone, by 26 hours, both groups): 1.0
mean HR, naloxone period higher than fentanyl only period ([1]; dog, in vivo): 28.9±1.78 bpm
mean body temperature, naloxone period higher than fentanyl only period ([1]; dog, in vivo): 2.19±0.0638 °C
odds of being sedated, 160 μg/kg relative to 40 μg/kg IM naloxone ([1]; dog, in vivo): 0.353 fold
heart rate ([1]; during IM naloxone reversal, 16 through 24 hr): 101±2.41 bpm
body temperature ([1]; during IM naloxone reversal, 16 through 24 hr, both groups): 37.7±0.0578 °C
heart rate ([1]; following termination of naloxone administration): 83.1±3.31 bpm
HR, 160 μg/kg higher than 40 μg/kg IM naloxone ([1]; naloxone treatment time period): 9.97±5.11 bpm
body temperature, 160 μg/kg higher than 40 μg/kg IM naloxone ([1]; naloxone treatment time period): 0.412±0.123 °C
adverse effects of naloxone administration [2]: No seizures or other adverse affects

CN1CC[C@]23c4c5ccc(O)c4O[C@H]2C(=O)CC[C@@]3(O)[C@H]1C5
Number of Adverse Events, Mild (Oxymorphone (N = 253)): 125
Number of Adverse Events, Moderate (Oxymorphone (N = 253)): 75
Number of Adverse Events, Severe (Oxymorphone (N = 253)): 28
Number of Adverse Events, Total (Oxymorphone (N = 253)): 228
canines with adverse events, number (oxymorphone-treated): 84 canines
canines with adverse events, percent (oxymorphone-treated): 33.7%
canines with sedation scores≧2 (oxymorphone-treated, 1 hour post-extubation): 70%
canines moderately sedated (oxymorphone-treated, 12 hours): 11%
canines with sedation scores≧2 (oxymorphone-treated, 24 hours): 7%
incidence of emesis [3]: 1.6-8.7%
incidence of hypothermia [3]: 1.4-9.5%
mean pain score (post-operative pain; 2 hours following extubation, oxymorphone-treated): 2.64
mean pain score (post-operative pain; Day 4, oxymorphone-treated): 1.28
Sum of pain intensity score, Max (post-operative pain; Oxymorphone): 72
Sum of pain intensity score, Median (post-operative pain; Oxymorphone): 19
Sum of pain intensity score, Min (post-operative pain; Oxymorphone): 0
Treatment Failures, % (post-operative pain; Oxymorphone 0.1-0.2 mg/kg SC every 6 hours, N = 251): 10.76%
canines withdrawn due to severe adverse events (post-operative pain; Oxymorphone (N = 253)): 18 canines
Sum of pain intensity score, Mean (post-operative pain; entire post-surgical period, Oxymorphone, N 65): 21.662
